{"source": "ChEMBL document CHEMBL4308853", "about": "“Design, Synthesis, and Pharmacological Evaluation of Novel β2/3 Subunit-Selective γ-Aminobutyric Acid Type A (GABAA) Receptor Modulators” (J Med Chem, 2018)", "key": {"[1]": {"biological_target": "GABA-A receptor; alpha-1/beta-3/gamma-2 (Homo sapiens, UniProt P14867+P18507+P28472)"}, "[2]": {"tested_on": "Oocyte", "assay": "Induction of current in Xenopus laevis oocytes at 10 to 100 uM after 5 mins by two-microelectrode voltage clamp method", "type": "cell-based"}, "[3]": {"biological_target": "GABA-A receptor; alpha-1/beta-2/gamma-2 (Homo sapiens, UniProt P14867+P47870+P18507)"}, "[4]": {"biological_target": "GABA A receptor alpha-1/beta-1/gamma-2 (Homo sapiens, UniProt P14867+P18507+P18505, S290N)", "type": "cell-based"}, "[5]": {"biological_target": "GABA A receptor alpha-1/beta-1/gamma-2 (Homo sapiens, UniProt P14867+P18507+P18505)", "type": "cell-based"}, "[6]": {"biological_target": "GABA-A receptor; alpha-1/beta-3/gamma-2 (Homo sapiens, UniProt P14867+P18507+P28472, N265S)"}, "[7]": {"biological_target": "GABA-A receptor; alpha-1/beta-3/gamma-2 (Homo sapiens, UniProt P14867+P18507+P28472, F289S)"}}}
{"smiles": "CC(=C(C#N)C#N)c1ccc(Cl)cc1Cl", "values": [{"measurement": "EC50", "setting": "[1]", "result": 13, "unit": "µM"}, {"measurement": "Activity", "setting": "[2]", "result": "Non-Toxic"}, {"measurement": "EC50", "setting": "[3]", "result": 11, "unit": "µM"}, {"measurement": "EC50", "setting": "[4]", "result": 11, "unit": "µM"}, {"measurement": "EC50", "setting": "[5]", "result": 98, "unit": "µM"}, {"measurement": "EC50", "setting": "[6]", "result": 24, "unit": "µM"}, {"measurement": "EC50", "setting": "[7]", "result": 52, "unit": "µM"}]}
